Laboratory results as given in patent publication US20250381289A1, “EGFR AND C-MET BISPECIFIC BINDING AGENTS, CONJUGATES THEREOF AND METHODS OF USING THE SAME” (GENMAB A/S, priority 2024, published 2025).

System: EGFR and cMET co-expressed tumor cell lines (A431, A549, MDA-MB-468, MKN-45, NCI-H441, NCI-H1975)
Test: Binding activity of parent mAbs by flow cytometry
Conditions: flow cytometry on tumor cell lines, FIGS. 1A-1F, Table 5; compared with zalutumumab (zalu) or cetuximab
Experimental: EGFR and cMET co-expressed tumor cell lines including A431 (ATCC® CRL-1555), A549 (ATCC® CCL-185, Provided by Procell), MDA-MB-468 (ATCC® HTB-132, Provided by Procell), MKN-45 (CL-0292, Provided by Procell), NCI-H441 (ATCC® HTB-174, Provided by COBIOER), NCI-H1975 (ATCC® CRL-5908, Provided by Procell) were selected for evaluating antibody binding activity by flow cytometry.
A431 was cultured with DMEM medium (Gibco, Cat #C11995500BT) containing 10% FBS. MDA-MB-468, MKN-45, NCI-H441 and NCI-H1975 were cultured with RPMI 1640 medium (Gibco, Cat #11875093) containing 10% FBS. A549 was cultured with F12K medium (Gibco, Cat #21127030) containing 10% FBS. Each antibody was incubated with different cell lines (1×10^5 cells/well) for 30 min in 0.2 mL FACS buffer (1×PBS with 0.1% BSA) at 4° C. After wash, cells were incubated with 100 μL PE-conjugated anti human Fc (Abcam, Ab98596, 1:500 dilution) for 30 min at 4° C. After wash with PBS, cells were resuspended in FACS buffer and analyzed by flow cytometer (Beckman, CytoFLEX).

## Cetuximab: parent EGFR mAb; sequences in Table 2 [reference compound]
  binding activity / affinity of parent EGFR mAbs (summary): Strong affinity, chimeric, binding remains
